Test results: article PMC8545574, “Antioxidant, Anti-Inflammatory, and Antidiabetic Activities of Bioactive Compounds from the Fruits of Livistona chinensis Based on Network Pharmacology Prediction” (Oxidative Medicine and Cellular Longevity, 2021)

Target: T1, PTP1B (Homo sapiens, UniProt P18031)
T1 sequence (P18031 1-321 limits assumed): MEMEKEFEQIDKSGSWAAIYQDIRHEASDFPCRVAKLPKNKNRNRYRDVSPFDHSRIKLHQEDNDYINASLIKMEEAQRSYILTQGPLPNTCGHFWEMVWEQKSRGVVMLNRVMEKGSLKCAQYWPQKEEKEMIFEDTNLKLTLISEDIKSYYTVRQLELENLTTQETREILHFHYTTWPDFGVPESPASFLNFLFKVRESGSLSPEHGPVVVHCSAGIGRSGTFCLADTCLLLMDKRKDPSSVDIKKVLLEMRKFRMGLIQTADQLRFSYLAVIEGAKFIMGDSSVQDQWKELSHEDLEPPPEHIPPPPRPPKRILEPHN
Experiment: PTP1B inhibitory assay (p-NPP substrate)

| IC50 [µM] | Compound | IC50 (read-out: IC50 PTP1B inhibitory effect, mean ± SD, n = 3) [µM] |
| --- | --- | --- |
| 90.21 ± 0.37 | COc1cc(-c2oc3cc(O)cc(O)c3c(=O)c2O[C@@H]2O[C@H](CO)[C@@H](O)[C@H](O)[C@H]2O)ccc1O [Compound 11, isorhamnetin-3-O-β-D-glucoside] |  |
|  | (+)-pinoresinol [Compound 29] | 90.2 ± 1.87 |

Like-named read-outs stand apart in the source and are kept apart here.
